# Measured affinities in a library of Ab-14 light chain variants

Target: peptide PDVDLGDISGINAS, taken from heptad repeat 2 (HR2) of SARS-CoV-2 spike.

Parent scFv Ab-14: VH joined to VL by the linker GGGGSGGGGSGGGGS. Changes lie in the light chain CDRs alone.
VH: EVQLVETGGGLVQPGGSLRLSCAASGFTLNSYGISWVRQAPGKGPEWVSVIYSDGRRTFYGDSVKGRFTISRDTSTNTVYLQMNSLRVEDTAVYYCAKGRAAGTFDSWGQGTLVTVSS
VL: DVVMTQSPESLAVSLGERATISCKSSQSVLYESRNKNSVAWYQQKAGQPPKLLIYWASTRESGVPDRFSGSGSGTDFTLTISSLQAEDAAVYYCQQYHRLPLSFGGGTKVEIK

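Phage display of a naive human antibody library on the peptide gave the parent. The variants were designed computationally from a first round of random CDR variants and then made and measured. Group labels follow the data file (Ctrl: baseline library sampled from a position-specific scoring matrix, with some repeated check sequences; En: ensemble of fine-tuned language models; GP: Gaussian process model; HC: hill climbing; Gen: genetic algorithm; Gibbs: Gibbs sampling; a sequence that several methods proposed may carry one label only). AlphaSeq pools MATa yeast showing the antibodies with MATalpha yeast showing the peptide. Pairs that bind mate more often; barcode pairs of the diploids are counted by sequencing. Scores were corrected for input abundance and mapped to Kd with protein pairs of known affinity run in the same pool. Each pool was mated in six replicate cultures.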

The parent's light chain CDRs are KSSQSVLYESRNKNSVA, WASTRES, QQYHRLPLS; each variant's own CDRs replace them letter for letter. Kd is apparent (estimated from mating counts) and averaged on the log scale over replicates with a signal. Smaller is tighter. "no signal" means that the variant was in the library but no mating with the target was seen in any replicate; the authors take this as a sign of poor binding, and no number exists. Three control strains display no target. For all light chain designs, 4% of the pairings with them gave a signal, with a median of 430 nM and one signal in twenty below 38 nM, so weak values seen in few replicates may be background. The control count says in how many pairings with the empty strains this scFv gave a signal. In the paper, a design with two or fewer of six values counts as a poor binder. Values of this round are not directly comparable with the first-round values of the same sequences. The parent sequence was in this pool as ten entries: three were never detected, three once, and four in most replicates, with averages from 2.2 nM to 240 nM.

CDR-L1 | CDR-L2 | CDR-L3 | group | apparent Kd | replicates with signal | signal with controls
KLSQSVLYESRNKNNVA | NASTREM | QQYHRLPLS | GP_Gen | 300 pM | 6 of 6 | 0 of 18
MINMEVGIEDMKWNSVA | SADVRAF | QQYGRLPFS | En_Gibbs | 15 nM | 6 of 6 | 0 of 18
KVAQSDLYESRNKNSVA | EASTRES | QQYHRLPLS | GP_Gen | 740 pM | 6 of 6 | 1 of 18
HITYGMMVHGRHSKSIA | QAEERAK | QQYDRLPLA | En_Gen | 8.6 nM | 6 of 6 | 0 of 18
TLSGVMDMTTRNVNSVA | DLTTRGN | QQYHRLPLS | En_HC | 2.4 nM | 6 of 6 | 0 of 18
KSSQSWLYESRNKNSVA | GASTRER | QQYHRLPLS | GP_HC | 1.3 nM | 6 of 6 | 4 of 18
HSSPSVLYESRNGNSVA | NASTREQ | QQYHRLPLS | GP_HC | 1.8 nM | 6 of 6 | 0 of 18
HVSNLYTDESVREYNIA | ETSHVEE | QQYERLPLI | En_Gibbs | 7.3 nM | 6 of 6 | 1 of 18
TLGNQPTEMRDNKHAVA | DDEQRDR | QQYMRLPLS | En_Gibbs | 2.3 nM | 6 of 6 | 0 of 18
KTLQSVLYESRNKNSVA | HASTRED | QQYHQLPLS | GP_HC | 2.0 nM | 6 of 6 | 1 of 18
MISNLMNMGSFAINSVA | QASIRNS | QQYDRLPLI | En_Gen | 40 nM | 6 of 6 | 0 of 18
KFDMHIPYQGEQNAHIA | GTTNRLT | QQYFKLPLS | En_Gibbs | 1.2 nM | 6 of 6 | 0 of 18
KISQNMGETQRNKNSVA | EVSTVPY | QQYWRLPLS | En_HC | 56 nM | 6 of 6 | 1 of 18
HFAYPWQSGYVSKQNVA | NASTVMT | QHYNRLPLS | En_Gibbs | 20 nM | 6 of 6 | 1 of 18
ILSDHAVNQYDEADSIA | DKTETAV | QQYARLPLS | En_Gibbs | 20 nM | 6 of 6 | 1 of 18
KVSEMMAFLSRNRNSVA | DNSTRGA | QQYHRLPLS | En_HC | 64 nM | 6 of 6 | 3 of 18
KMSKSVLYESRNKNSVA | WASTRES | QQYHRLPLS | Ctrl | 8.9 nM | 6 of 6 | 0 of 18
MFSQSVMYGSFMRNSVA | QTSTREN | QQYDHLPLS | En_HC | 6.4 nM | 6 of 6 | 1 of 18
KLSQSFLYESRNKNAVA | NASTRES | QQYHRLPLS | GP_Gen | 670 pM | 6 of 6 | 0 of 18
KSSQSVWAESFNKNSVA | WASYRES | QQYHRLPLS | Ctrl | 32 nM | 5 of 6 | 0 of 18
KNSQSVKFESRNKNSVA | DASTRES | QQYHRLPLS | GP_HC | 1.5 nM | 6 of 6 | 0 of 18
KLSCSELYDEPNKNSVA | NASTRDM | QQYHRLPLS | GP_Gibbs | 39 nM | 5 of 6 | 1 of 18
KLSQSVLYEQRQKNSVA | NASTRMS | QQYHRLPLS | GP_Gen | 1.6 nM | 6 of 6 | 1 of 18
KASQAVLYESRNKNSVA | EASTREV | QQYHRLPLS | Ctrl | 1.4 nM | 6 of 6 | 0 of 18
QFHQGMIGDQRNVHSIA | NAQAAVP | QYYFRLPLS | En_Gibbs | 5.7 nM | 6 of 6 | 0 of 18
KVDQSVLYESRNKNAVA | QGSTRES | QQYHRLPLH | GP_Gibbs | 810 pM | 6 of 6 | 0 of 18
KAQQSNLYEDRNQNSVA | SASQRLS | QQYHRLPLS | GP_Gibbs | 1.5 nM | 6 of 6 | 0 of 18
KSSQSVRYEWRFKNSVA | WASTRES | QQYHRLPLS | Ctrl | 110 nM | 1 of 6 | 0 of 18
KSSQSVDYESRNKNSVA | EASTRES | QQYHRLPLS | GP_Gen | 1.0 nM | 6 of 6 | 2 of 18
KSSGSVLYESLNKNSVA | WASTRES | QHYHRLPLS | Ctrl | 450 nM | 1 of 6 | 0 of 18
KSSTSYLEESRNKNSVA | EASTRES | QQYHRLPLS | GP_HC | 1.1 nM | 6 of 6 | 2 of 18
NIVGRVEDKQTENNAIA | DAHCRAG | QQYSRLPIS | En_Gibbs | 32 nM | 6 of 6 | 0 of 18
HISMMVGTKGQAKNSVA | NEETRYD | QQYHRLPLS | En_HC | 1.4 nM | 6 of 6 | 0 of 18
KSSTSWLYESRNKNSVA | GASARES | QQYHRLPLS | GP_HC | 730 pM | 6 of 6 | 1 of 18
KISMLINQTFQASNNVA | EMVTREK | QQYHRLPLS | En_Gen | 8.9 nM | 6 of 6 | 0 of 18

Further variants, results first:

apparent Kd | replicates with signal | signal with controls | CDR-L1 | CDR-L2 | CDR-L3 | group
2.0 nM | 6 of 6 | 2 of 18 | KLSQSVLYESRNKNSVA | EASTRFS | QQYHRLPLS | GP_Gen
14 nM | 3 of 6 | 1 of 18 | KCSQSVIYESRNKNSVA | WASTREA | QQYHRLPFS | Ctrl
5.2 nM | 6 of 6 | 0 of 18 | NISYLQGESTNSVNNVA | QTSKRAP | QYYQRLPLC | En_Gibbs
2.1 nM | 6 of 6 | 0 of 18 | QLQYAPGESLRSTQSIA | DVNIKDM | QQYARLPLA | En_Gibbs
2.4 nM | 6 of 6 | 0 of 18 | KYEQQELTEQRNKNSVA | NASTRES | QQYHQLPLS | GP_Gibbs
no signal | 0 of 6 | 1 of 18 | KSSQSVLYESQNKNSVA | WCSTRES | QQYHRLPLS | Ctrl
82 nM | 4 of 6 | 0 of 18 | KIRVHNLMFYQNESSIA | GQSNRSE | QQYYHLPLT | En_Gibbs
4.6 nM | 6 of 6 | 1 of 18 | KQSDSVLYESRNKNSVA | WASTRES | QQYSRMPLS | Ctrl
no signal | 0 of 6 | 1 of 18 | RLSALSGIQEVERNSVA | QNSTREQ | QQYDRLPLS | En_Gen
7.9 nM | 6 of 6 | 1 of 18 | KVQQSVNVGSKNKNSLA | EMSTREF | QDYHRLPLS | En_HC
1.2 nM | 6 of 6 | 1 of 18 | KLSQSHLYESRNKNSVA | NASTREW | QQYHRLPLS | GP_Gen
2.1 nM | 6 of 6 | 1 of 18 | HISQSFMTESVWRNNIA | HQSTRET | QQYDRLPFS | En_HC
6.6 nM | 6 of 6 | 1 of 18 | SLVSKADYMDSERNNIA | NMDLRNE | QQYFHLPLT | En_Gibbs
630 pM | 6 of 6 | 0 of 18 | KMSQSVLMEHRNKNSVA | DASTRES | QQYHRLPLS | GP_HC
no signal | 0 of 6 | 0 of 18 | KQGQSVSYESRNKNSVA | WASTREV | QQYIRLPLS | Ctrl
no signal | 0 of 6 | 0 of 18 | KSSMEFLYESRNKNSVA | GASTRES | QQYHRLTLS | GP_HC
17 nM | 6 of 6 | 1 of 18 | TISQSAHMESHNKDNVA | DLNTRGQ | QQYDRLPLS | En_HC
no signal | 0 of 6 | 0 of 18 | KSSQSVLGESRNQNSVA | WAYTRES | QQYHREPLS | Ctrl
21 nM | 6 of 6 | 0 of 18 | HMSMLTLQGMRQKNSVA | QMTTREN | QQYDHLPLA | En_Gen
2.0 nM | 6 of 6 | 0 of 18 | KAQQSELYEKRNQNSVA | SASQRLS | QQYHRLPLS | GP_Gibbs
1.4 nM | 6 of 6 | 4 of 18 | KSSQSVLYESRNKNSVA | EASTRES | QQYARLPLS | Ctrl
530 pM | 6 of 6 | 1 of 18 | KLPMSTLYESRNKNSVA | NASTRES | QQYHRLPLS | GP_HC
1.9 nM | 6 of 6 | 1 of 18 | GLSQSVLYESRNKNSVA | DASTRES | QQYHRLPLS | GP_HC
140 nM | 6 of 6 | 3 of 18 | TLMMDPTEQRDSKHAIA | DNNQRDR | QQYHRLPLY | En_Gibbs
5.6 nM | 6 of 6 | 0 of 18 | RVTNEMGKEMERKQSVA | ETEQRCM | QQYARLPLI | En_Gibbs
77 nM | 2 of 6 | 0 of 18 | KSSQSVLYESRFKNSVA | WASTRES | QQYHRLPLS | Ctrl
no signal | 0 of 6 | 0 of 18 | MFSQSVMYGSFMRNSVA | QTTTREN | QQYDRLPLM | En_HC
760 pM | 6 of 6 | 1 of 18 | KLEQSQLYESRNKNSVA | NASTREV | QQYHRLPLS | GP_Gen
320 nM | 4 of 6 | 1 of 18 | NLSIEMSYYYENRYSIA | DMTVREY | QHYSRIPLA | En_Gibbs
3.1 nM | 6 of 6 | 0 of 18 | KVSQSELYESRNKNSVA | NASLRES | QQYHRLPLS | GP_Gen
430 nM | 4 of 6 | 0 of 18 | SLYEITQELSGKKHSVA | DNSTRGE | QQYFRLPLD | En_Gen
5.6 nM | 6 of 6 | 2 of 18 | KSSGQVCYGDRNKNSVA | NASLREQ | QQYHRLPLS | GP_Gibbs
1.1 nM | 6 of 6 | 1 of 18 | KLSYSVMLESRNKNAVA | SASTRES | QDYHRLPLS | GP_Gibbs
34 nM | 6 of 6 | 4 of 18 | MISQLFMYGSRQYNSIA | QAETREK | QQYDRLPLE | En_HC
12 nM | 6 of 6 | 0 of 18 | MLLQSTMYGERNRNSVA | HASTRND | QQYHRLPLI | En_HC
1.0 nM | 6 of 6 | 2 of 18 | KSDQSQLYENRMKNSVA | DASLRES | QQYHRLPLS | GP_Gibbs

The measurements come from Li et al. 2023 (doi:10.1038/s41467-023-39022-2) through the FLAb antibody collection.